The results in this text go back to ChEMBL document CHEMBL1158892, “Cationic reduction of bastadin-4 to bastadin-5. Preparation of 5-[2h]-bastadin-5 by site-specific isotopic labeling” (J Nat Prod, 2003).

Sequences of proteins named here, by UniProt entry; tags and fusion partners are left off. A change or cut given only in a name is not applied to a line headed by its entry.
UniProt P21817: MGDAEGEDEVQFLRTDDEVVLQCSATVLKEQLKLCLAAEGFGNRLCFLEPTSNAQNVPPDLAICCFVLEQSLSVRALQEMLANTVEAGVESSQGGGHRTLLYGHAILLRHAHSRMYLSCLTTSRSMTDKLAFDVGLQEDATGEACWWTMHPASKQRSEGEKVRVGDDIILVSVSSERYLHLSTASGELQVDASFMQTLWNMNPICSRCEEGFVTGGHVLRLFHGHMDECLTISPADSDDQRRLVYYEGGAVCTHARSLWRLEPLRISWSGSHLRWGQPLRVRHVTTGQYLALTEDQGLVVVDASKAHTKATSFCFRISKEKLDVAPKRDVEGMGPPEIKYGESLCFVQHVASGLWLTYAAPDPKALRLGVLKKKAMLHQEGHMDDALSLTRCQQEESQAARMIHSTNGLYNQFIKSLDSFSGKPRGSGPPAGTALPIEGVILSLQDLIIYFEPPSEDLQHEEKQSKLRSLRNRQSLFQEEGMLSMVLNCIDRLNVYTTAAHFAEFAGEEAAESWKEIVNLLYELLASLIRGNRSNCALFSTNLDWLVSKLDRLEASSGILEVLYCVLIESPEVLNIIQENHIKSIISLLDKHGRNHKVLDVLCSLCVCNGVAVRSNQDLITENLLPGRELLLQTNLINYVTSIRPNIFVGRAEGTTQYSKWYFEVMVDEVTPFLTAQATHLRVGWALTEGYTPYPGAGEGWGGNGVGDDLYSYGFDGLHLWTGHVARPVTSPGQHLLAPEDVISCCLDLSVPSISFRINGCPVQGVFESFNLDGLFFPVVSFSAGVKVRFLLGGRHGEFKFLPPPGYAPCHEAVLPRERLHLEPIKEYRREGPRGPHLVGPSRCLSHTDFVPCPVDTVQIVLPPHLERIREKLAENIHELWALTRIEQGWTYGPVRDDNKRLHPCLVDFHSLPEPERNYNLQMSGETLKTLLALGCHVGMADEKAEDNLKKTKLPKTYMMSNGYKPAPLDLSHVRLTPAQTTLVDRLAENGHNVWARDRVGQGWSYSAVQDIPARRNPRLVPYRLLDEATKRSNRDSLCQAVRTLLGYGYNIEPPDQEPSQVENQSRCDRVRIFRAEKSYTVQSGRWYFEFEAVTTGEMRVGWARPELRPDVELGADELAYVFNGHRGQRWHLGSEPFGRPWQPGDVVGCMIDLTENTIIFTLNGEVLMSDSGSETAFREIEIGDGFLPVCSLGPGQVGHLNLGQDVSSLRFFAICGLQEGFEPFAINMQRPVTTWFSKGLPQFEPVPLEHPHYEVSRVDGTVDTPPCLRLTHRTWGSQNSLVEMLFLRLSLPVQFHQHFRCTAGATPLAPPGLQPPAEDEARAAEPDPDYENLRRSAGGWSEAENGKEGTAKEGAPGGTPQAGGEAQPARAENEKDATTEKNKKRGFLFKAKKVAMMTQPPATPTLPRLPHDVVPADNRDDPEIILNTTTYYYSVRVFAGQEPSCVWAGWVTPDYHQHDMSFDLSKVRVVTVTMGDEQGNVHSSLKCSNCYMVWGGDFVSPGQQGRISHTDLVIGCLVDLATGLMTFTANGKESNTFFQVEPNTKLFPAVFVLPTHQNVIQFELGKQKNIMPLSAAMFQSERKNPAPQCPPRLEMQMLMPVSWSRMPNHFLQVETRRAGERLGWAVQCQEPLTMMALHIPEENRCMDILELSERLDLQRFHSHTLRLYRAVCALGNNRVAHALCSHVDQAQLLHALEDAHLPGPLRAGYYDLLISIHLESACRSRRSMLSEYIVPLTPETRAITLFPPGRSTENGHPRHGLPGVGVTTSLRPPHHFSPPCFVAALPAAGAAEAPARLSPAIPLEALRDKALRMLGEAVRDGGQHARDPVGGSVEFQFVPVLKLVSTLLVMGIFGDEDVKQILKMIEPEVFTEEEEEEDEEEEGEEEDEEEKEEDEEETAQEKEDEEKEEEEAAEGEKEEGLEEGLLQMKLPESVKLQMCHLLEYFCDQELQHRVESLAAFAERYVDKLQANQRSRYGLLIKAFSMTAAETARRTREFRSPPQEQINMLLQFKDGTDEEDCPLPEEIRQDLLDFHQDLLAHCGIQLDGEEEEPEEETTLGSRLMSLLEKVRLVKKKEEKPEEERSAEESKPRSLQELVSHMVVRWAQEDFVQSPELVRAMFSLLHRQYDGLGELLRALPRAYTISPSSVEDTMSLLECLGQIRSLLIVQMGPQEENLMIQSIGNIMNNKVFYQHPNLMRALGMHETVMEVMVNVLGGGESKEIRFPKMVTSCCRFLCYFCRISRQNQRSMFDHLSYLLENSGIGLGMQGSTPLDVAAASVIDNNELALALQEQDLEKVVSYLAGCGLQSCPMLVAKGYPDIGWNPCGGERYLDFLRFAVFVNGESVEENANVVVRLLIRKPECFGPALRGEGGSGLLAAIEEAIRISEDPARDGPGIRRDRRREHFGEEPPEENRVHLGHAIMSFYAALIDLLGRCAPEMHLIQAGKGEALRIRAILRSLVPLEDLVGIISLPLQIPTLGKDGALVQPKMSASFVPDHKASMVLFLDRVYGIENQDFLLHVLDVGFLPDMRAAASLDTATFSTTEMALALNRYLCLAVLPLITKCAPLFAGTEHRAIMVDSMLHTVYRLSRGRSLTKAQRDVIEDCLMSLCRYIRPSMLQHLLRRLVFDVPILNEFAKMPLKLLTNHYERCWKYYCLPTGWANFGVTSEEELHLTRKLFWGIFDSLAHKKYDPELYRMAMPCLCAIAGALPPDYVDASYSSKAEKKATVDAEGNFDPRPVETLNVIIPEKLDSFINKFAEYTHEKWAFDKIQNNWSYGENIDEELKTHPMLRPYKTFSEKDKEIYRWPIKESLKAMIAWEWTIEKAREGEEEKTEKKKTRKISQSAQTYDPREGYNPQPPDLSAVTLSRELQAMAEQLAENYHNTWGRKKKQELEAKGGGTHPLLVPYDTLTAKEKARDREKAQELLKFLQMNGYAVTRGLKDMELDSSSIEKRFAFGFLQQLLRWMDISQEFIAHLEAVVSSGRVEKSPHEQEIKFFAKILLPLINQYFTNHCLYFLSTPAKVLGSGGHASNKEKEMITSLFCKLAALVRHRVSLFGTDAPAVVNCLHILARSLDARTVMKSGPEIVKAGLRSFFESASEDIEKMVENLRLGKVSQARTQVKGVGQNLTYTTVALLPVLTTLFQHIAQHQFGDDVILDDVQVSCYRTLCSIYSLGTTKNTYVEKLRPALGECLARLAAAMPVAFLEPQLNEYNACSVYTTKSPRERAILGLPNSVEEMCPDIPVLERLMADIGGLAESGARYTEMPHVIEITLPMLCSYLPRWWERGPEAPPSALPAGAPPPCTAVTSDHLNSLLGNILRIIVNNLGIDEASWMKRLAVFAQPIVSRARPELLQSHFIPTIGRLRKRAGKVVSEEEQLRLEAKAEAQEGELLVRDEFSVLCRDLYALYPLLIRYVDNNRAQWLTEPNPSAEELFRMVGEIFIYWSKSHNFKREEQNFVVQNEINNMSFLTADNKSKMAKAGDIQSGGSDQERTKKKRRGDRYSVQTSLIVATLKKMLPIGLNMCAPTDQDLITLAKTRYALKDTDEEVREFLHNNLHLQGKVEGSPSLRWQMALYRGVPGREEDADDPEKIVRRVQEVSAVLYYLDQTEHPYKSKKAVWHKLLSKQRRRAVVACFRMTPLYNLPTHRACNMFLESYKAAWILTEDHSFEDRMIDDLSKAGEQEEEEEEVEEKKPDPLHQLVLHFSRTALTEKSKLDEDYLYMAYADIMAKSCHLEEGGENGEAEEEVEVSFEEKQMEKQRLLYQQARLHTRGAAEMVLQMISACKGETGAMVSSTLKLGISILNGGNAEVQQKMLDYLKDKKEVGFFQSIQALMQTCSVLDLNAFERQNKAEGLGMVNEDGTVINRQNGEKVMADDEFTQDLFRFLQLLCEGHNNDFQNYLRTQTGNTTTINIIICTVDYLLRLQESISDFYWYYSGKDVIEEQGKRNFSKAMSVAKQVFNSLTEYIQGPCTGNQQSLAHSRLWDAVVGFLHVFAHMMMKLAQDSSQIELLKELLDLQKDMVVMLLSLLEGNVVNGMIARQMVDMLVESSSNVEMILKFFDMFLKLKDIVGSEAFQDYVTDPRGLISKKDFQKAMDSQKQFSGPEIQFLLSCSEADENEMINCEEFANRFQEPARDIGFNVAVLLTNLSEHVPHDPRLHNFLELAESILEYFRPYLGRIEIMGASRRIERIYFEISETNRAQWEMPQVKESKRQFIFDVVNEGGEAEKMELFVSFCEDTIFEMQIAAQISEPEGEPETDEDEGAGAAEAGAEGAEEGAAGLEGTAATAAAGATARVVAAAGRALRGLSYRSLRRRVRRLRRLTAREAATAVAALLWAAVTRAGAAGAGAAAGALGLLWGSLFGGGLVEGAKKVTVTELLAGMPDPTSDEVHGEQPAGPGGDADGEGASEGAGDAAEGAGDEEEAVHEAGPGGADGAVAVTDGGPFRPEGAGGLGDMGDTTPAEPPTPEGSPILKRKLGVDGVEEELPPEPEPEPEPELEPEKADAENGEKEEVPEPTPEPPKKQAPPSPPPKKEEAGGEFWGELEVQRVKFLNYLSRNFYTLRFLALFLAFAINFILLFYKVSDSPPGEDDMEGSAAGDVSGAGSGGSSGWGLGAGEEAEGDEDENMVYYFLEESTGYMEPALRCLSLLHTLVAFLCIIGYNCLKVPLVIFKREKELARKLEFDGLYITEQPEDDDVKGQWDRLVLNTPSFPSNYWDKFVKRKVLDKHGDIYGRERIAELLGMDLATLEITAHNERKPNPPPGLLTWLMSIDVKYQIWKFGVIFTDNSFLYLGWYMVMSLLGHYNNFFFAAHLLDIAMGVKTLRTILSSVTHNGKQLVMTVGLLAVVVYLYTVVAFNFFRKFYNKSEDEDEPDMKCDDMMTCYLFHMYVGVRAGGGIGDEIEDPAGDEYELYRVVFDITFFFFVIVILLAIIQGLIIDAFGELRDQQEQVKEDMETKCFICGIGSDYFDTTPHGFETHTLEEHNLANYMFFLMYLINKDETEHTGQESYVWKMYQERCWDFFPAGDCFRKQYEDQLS

Each structure is given as a SMILES string.

This experiment concerns the target Ryanodine receptor 1 (Homo sapiens, UniProt P21817). In words: Displacement of [3H]ryanodine from RyR1 calcium channel in sarcoplasmic reticulum assessed as calcium mobilization. (In a radioligand displacement assay an active substance lowers the binding of a labelled ligand.)
In the case of `O=C1NCCc2cc(Br)c(O)c(c2)Oc2ccc(cc2Br)[C@H](O)CNC(=O)/C(=N/O)Cc2cc(Br)c(O)c(c2)Oc2ccc(cc2Br)C/C1=N/O`, the EC50 turned out to be 5.8 µM.

As to `O=C1NCCc2cc(Br)c(O)c(c2)Oc2c(Br)cc(cc2Br)CCNC(=O)/C(=N\O)Cc2cc(Br)c(O)c(c2)Oc2c(Br)cc(cc2Br)C/C1=N/O`, the EC50 was 2.6 µM.

Consider `O=C1N/C=C/c2ccc(c(Br)c2)Oc2cc(cc(Br)c2O)CCNC(=O)/C(=N/O)Cc2cc(Br)c(c(Br)c2)Oc2cc(cc(Br)c2O)C/C1=N\O`, for which the EC50 was determined as 14.7 µM.

A word on the EC50: it is the concentration that produces a half-maximal response.
